US9090596B2, “Disubstituted 3,4-diamino-3-cyclobutene-1,2-dione compounds for use in the treatment of chemokine-mediated pathologies” (GALDERMA RESEARCH & DEVELOPMENT, priority 2011, dated 2015)

Protein sequences, listed by entry. Tags and fused reporters are not part of them.
UniProt P25025, whole entry: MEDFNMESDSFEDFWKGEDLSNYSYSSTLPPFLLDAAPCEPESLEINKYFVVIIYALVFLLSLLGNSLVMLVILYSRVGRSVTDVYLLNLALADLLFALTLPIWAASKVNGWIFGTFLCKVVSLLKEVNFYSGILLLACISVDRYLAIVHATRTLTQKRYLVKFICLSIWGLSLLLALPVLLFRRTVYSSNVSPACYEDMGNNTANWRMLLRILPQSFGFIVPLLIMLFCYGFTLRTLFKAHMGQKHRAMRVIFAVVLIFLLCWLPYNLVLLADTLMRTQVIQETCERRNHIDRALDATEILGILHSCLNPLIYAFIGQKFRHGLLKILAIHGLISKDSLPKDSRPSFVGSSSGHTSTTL

Biological target: CXCR2 (Homo sapiens (Human), UniProt P25025)
Assay: Half-dissociation time, washout β-arrestin recruitment model in PathHunter HEK293-CXCR2 cells
Format: cell-based
Conditions: CXCR2, saturating concentration of antagonist, 4 nM CXCL8
Method: The determination of the half-dissociation constants of the CXCR2 antagonists was based on the in vitro β-arrestin recruitment model previously described: “PathHunter HEK293-CXCR2” cells (DiscoveRx Corporation) were seeded overnight at 20 000 cells/well (in a 96-well format) in 100 μl/well of OptiMEM culture medium-1% FCS. A preincubation with the antagonist or the vehicle was carried out for 1 hour at 37° C.-5% CO2. The cells were then washed 3 times with 100 μl/well of OptiMEM culture medium-1% FCS and then a variable incubation (0 h-0.5 h-6 h-12 h-24 h) of the cells at 37° C.-5% CO2 was carried out. The cells were then stimulated with 4 nM of CXCL8 at 37° C.-5% CO2 for 1 h 30 min. […] After incubation for 60 minutes at ambient temperature, the luminescence emitted, via the hydrolysis of the substrate by the β-galactosidase complemented during the β-arrestin-CXCR2 interaction, was measured for 0.3 seconds/well with an Envision Multilabel Reader (PerkinElmer Life and Analytical Sciences). The data were analyzed by means of a non-linear curve procedure using the XLFit4 exploitation software (IDBS) and the IC50 values were determined. The half-dissociation time was determined on a regression of type y=(A*(1−exp(((−1)*B)*x))) (where x=time and y=standardized luminescence) at saturating concentration of antagonist.

- Half-dissociation time: >96 h
Structure (SMILES): CC[C@@H](Nc1c(Nc2cccc(C(=O)N(C)C)c2O)c(=O)c1=O)c1ccc(C)o1 [SCH-527123]
